The values below come from PMC3855329, “A Fluorescence-Based Thermal Shift Assay Identifies Inhibitors of Mitogen Activated Protein Kinase Kinase 4” (PLoS ONE, 2013).

The target of this test is T1, human MAP2K4-EE (Homo sapiens, UniProt P45985, S257E/T261E).
T1 construct: Human MAP2K4-EE (residues 37–399); His tag (pMCSG7 vector, TEV-cleavable) (N); made in house; host or cells: E. coli KRX cells with pGro7 (GroEL/GroES)
T1 sequence (P45985 37-399 S257E/T261E): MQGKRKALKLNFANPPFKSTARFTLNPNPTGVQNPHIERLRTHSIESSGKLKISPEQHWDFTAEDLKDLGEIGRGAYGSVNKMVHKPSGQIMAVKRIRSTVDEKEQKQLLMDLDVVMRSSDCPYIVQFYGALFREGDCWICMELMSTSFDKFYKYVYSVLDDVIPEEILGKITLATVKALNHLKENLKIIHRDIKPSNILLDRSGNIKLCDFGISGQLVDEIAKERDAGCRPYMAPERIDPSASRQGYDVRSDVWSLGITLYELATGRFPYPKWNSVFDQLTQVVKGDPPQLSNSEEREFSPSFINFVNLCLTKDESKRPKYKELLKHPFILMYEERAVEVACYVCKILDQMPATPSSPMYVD
Kind of test: Fluorescence-based thermal shift (FTS) assay. The note with it: 10 µM compound, mean ± SD. The test is classed as binding.

Molecules are shown by their SMILES. Where only a bound is given, the exact number is not on record here.

In the case of `CN[C@@H]1C[C@H]2O[C@@](C)([C@@H]1OC)n1c3ccccc3c3c4c(c5c6ccccc6n2c5c31)C(=O)NC4` [Staurosporine], the “ΔTm at 10 µM” value is 10.03±0.05 °C (n = 3) and greater than 4 °C (n = 3, listed as staurosporine).
